Laboratory results taken from patent US20170157251A1, “Bi-Specific Monovalent Diabodies That are Capable of Binding CD19 and CD3, and Uses Thereof” (MacroGenics, Inc., priority 2015, published 2017).

Chains of the proteins cited; added tags and fusions are not shown. Lines headed by an entry give the natural chain unless they say otherwise; changes in a name come on top. Residues count along the entry.
UniProt P07766, 23-126 limits assumed: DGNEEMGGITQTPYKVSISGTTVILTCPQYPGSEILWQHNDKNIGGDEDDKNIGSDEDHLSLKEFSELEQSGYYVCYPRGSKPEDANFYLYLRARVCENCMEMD

Molecular target: T1, soluble human CD3ε/δ heterodimer and soluble human CD19-biotin (Homo sapiens, UniProt P07766+P15391)
T1 construct: coated with soluble human CD3ε/δ heterodimer; followed by addition of soluble human CD19-biotin
Test: Bifunctional ELISA, simultaneous engagement of both target antigens
Assay type: binding
Source text: The plates were washed and the immune complex was detected with chemoluminescent substrate conjugated to streptavidin.

B1: Control DART 2: control DART capable of binding to fluorescein and CD19 (protein)
chain 1: ENVLTQSPATLSVTPGEKATITCRASQSVSYMHWYQQKPGQAPRLLIYDASNRASGVPSRFSGSGSGTDHTLTISSLEAEDAATYYCFQGSVYPFTFGQGTKLEIKGGGSGGGGEVKLDETGGGLVQPGRPMKLSCVASGFTFSDYWMNWVRQSPEKGLEWVAQIRNKPYNYETYYSDSVKGRFTISRDDSKSSVYLQMNNLRVEDMGIYYCTGSYYGMDYWGQGTSVTVSSASTKGEVAACEKEVAALEKEVAALEKEVAALEKGGGDKTHTCPPCPAPEAAGGPSVFLFPPKPKDTLMISRTPEVTCVVVDVSHEDPEVKFNWYVDGVEVHNAKTKPREEQYNSTYRVVSVLTVLHQDWLNGKEYKCKVSNKALPAPIEKTISKAKGQPREPQVYTLPPSREEMTKNQVSLWCLVKGFYPSDIAVEWESNGQPENNYKTTPPVLDSDGSFFLYSKLTVDKSRWQQGNVFSCSVMHEALHNHYTQKSLSLSPGK
chain 2: QAVVTQEPSLTVSPGGTVTLTCRSSTGAVTTSNYANWVQQKPGQAPRGLIGGTNKRAPWTPARFSGSLLGGKAALTITGAQAEDEADYYCALWYSNLWVFGGGTKLTVLGGGGSGGGGEVKLDETGGGLVQPGRPMKLSCVASGFTFSDYWMNWVRQSPEKGLEWVAQIRNKPYNYETYYSDSVKGRFTISRDDSKSSVYLQMNNLRVEDMGIYYCTGSYYGMDYWGQGTSVTVSSASTKGKVAACKEKVAALKEKVAALKEKVAALKE
modifications: Amino Acid Sequence of the First Polypeptide Chain of Control DART 2; Amino Acid Sequence of the Second Polypeptide Chain of Control DART 2
  simultaneous binding to both CD19 and CD3: Neither Control DART 1 (▪) nor Control DART 2 (▴) were capable of binding to both targets simultaneously
